Ki data for 1 compound are collected here from ChEMBL document CHEMBL1141652 (J Med Chem, 2008).

Sequences of proteins named here, by UniProt entry; tags and fusion partners are left off. A change or cut given only in a name is not applied to a line headed by its entry.
UniProt P78536: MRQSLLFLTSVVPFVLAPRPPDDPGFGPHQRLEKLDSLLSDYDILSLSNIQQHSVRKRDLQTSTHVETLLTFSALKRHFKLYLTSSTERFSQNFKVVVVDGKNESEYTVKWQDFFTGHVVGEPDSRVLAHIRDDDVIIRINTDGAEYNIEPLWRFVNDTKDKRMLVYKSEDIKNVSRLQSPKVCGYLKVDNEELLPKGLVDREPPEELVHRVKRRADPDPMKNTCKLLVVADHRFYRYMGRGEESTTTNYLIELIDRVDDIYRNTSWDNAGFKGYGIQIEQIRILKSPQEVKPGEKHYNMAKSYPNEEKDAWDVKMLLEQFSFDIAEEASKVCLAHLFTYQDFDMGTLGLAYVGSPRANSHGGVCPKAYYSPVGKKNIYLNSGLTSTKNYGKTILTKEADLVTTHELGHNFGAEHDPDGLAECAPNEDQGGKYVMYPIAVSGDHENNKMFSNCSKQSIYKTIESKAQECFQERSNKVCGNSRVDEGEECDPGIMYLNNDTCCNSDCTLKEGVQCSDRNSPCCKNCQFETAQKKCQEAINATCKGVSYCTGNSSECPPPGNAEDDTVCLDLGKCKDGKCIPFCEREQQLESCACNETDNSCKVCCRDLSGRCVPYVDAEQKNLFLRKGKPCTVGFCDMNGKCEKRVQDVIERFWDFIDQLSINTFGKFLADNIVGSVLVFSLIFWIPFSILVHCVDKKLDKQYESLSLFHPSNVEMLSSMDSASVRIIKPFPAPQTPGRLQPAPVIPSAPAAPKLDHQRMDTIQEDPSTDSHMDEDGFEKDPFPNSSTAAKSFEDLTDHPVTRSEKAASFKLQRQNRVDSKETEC

As usually defined, the Ki is a dissociation constant, usually derived from enzyme kinetics or from competition with a known ligand.

In this assay the target is Disintegrin and metalloproteinase domain-containing protein 17 (Homo sapiens, UniProt P78536).

In turn, `COC(=O)[C@]1(c2cccc(OCc3cc(C)nc4ccccc34)c2)C[C@H]1C(=O)NO` (relative stereo) registered a Ki of 12 nM.
